# Source: PubChem BioAssay (National Center for Advancing Translational Sciences (NCATS))
# ClpP mod – qHTS Assay for Activators of ClpP; ATP-dependent Clp protease proteolytic subunit (Bacillus subtilis (strain 168)), P80244; purified B. subtilis ClpP, FRET peptide cleavage, 20 min; Potency, µM (doses to about 57.5 µM), for the others: top-dose activity change, negative = active; 340,000 compounds, 1.9% hits; AID 651965, 2013; active means well fitted falling curve with a large enough effect; inconclusive means small, poorly fitted or top-dose-only effect; inactive means no such curve, though single readings can be large or run the other way; further: potency means the concentration at half of the fitted maximal effect; the source files actives as falling curves though it sought activators and does not explain the sign; nearly all actives have a fitted effect of over 65% in size
#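 FRET quenching reversal measured ClpP activation: 10 microg/mL B. subtilis ClpP at pH 8 with the FRET-FV decapeptide, read at 430 nm after 320 nm excitation. The 20-min minus 0-min signal was scaled between DMSO/no-enzyme wells and ADEP (5.8 microM final).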
# p53 reactivator – re-activators of mutant p53 | H1299 p53-A138V BP100-luciferase reporter, luminescence, 24 h | Potency, µM (doses to about 92.2 µM), for the others: at the highest dose activity change, positive = activation, usual class: activators | 320,000 compounds, 0.063% hits; further: potency means the concentration at half of the fitted maximal effect; % of control where 0% means no effect; nearly all actives have a fitted effect of over 45% in size
#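 p53-null H1299 cells stably carrying temperature-sensitive p53-A138V and a BP100-luciferase reporter were pinned with compounds (4-point, 1:5 series) and held 24 hrs at 37 deg C. Luminescence was read 10 min after detection reagent.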
# A549 viability – kills or reduces viability of A549 cells in Nrf2 counter-screen; 390,000 compounds, 0.16% hits; Potency, µM (series often up to 46 µM), for the others: at the highest dose activity change, negative = cytotoxicity, hits mostly inhibitors; A549 ARE-Fluc cells, CellTiter-Fluor viability, 18-24 h; AID 504648; further: potency means the concentration at half of the fitted maximal effect; on the % scale 0 is the no-effect control and ±100 the full control effect
#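 A549 ARE_Fluc cells in 5% FBS OPTI-MEM were exposed to compounds in concentration-response for 18-24 h at 37 deg C. Viability was read by CellTiter-Fluor fluorescence (Ex 405/Em 525) after 30 min, before the luciferase read.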
# Nrf2 activator – Nrf2 pathway activation; AREc32 ARE-luciferase reporter (MCF7-derived line), luminescence, 24 h; Potency, µM (series often up to 46.1 µM), inactives show top-dose activation, most hits filed as activators; 410,000 compounds, 0.31% hits; AID 624171; further: potency means the concentration at half of the fitted maximal effect; % of control where 0% means no effect; nearly all actives have a fitted effect of over 65% in size
#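 AREc32 cells carrying an ARE-driven firefly luciferase reporter were seeded at 1000 cells/well in OPTI-MEM with 5% FBS, then exposed to compound for 24 hr at 37 deg C. Luminescence was read with Steady-Glo after 30 min at RT.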
# Nrf2 inh – inhibitors of Nrf2 signaling; A549 ARE-Fluc reporter, luciferase luminescence, 18-24 h; Potency, µM (series often up to 46 µM), inactives show at the highest dose activity change, negative = inhibition, usual class: inhibitors; 360,000 compounds, 2.1% hits; further: potency means the concentration at half of the fitted maximal effect; on the % scale 0 is the no-effect control and ±100 the full control effect; nearly all actives have a fitted effect of over 60% in size
#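 A549 ARE_Fluc cells, 5000/well, 5% FBS OPTI-MEM; compounds in dose-response, 18-24 h at 37 °C/5% CO2; CellTiter-Fluor viability read (Ex 405/Em 525), then BugLite luciferase luminescence = Nrf2 activity.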
# miR-21 reporter – miR-21 reporter, rising signal | HeLa miR-21 FLuc reporter, luciferase, 48 h | Potency, µM (top dose mostly 38.3 µM), inactives show at the highest dose reporter change, positive = more light | 340,000 tested, under 10 active | AID 2288; active = well fitted rising curve with a large enough effect; inconclusive = small, poorly fitted or top-dose-only effect; inactive = no such curve, though single readings can be large or run the other way;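 note: % of control where 0% means no effect; miR-21 action dims this reporter so a rising signal means less miR-21 action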
#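 HeLa cells endogenously expressing miR-21, stably carrying CMV-driven firefly luciferase with a downstream miR-21 binding site, 2000 cells/well. Titrations up to approximately 40 uM, 48 hours; luciferase luminescence read.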
# * = called active by the depositor; ? = inconclusive; . = no result given. This is a sample that favours compounds with a hit; in the whole collection about 3.7% have one here. Unless noted, the call rests on the fitted dose curve; in most records, active means well fitted curve in the direction sought with a large enough effect; inconclusive means small, poorly fitted or top-dose-only effect, or another doubt; inactive means no such curve, though single readings can be large; an effect the other way counts as inactive or inconclusive.
1. Cc1ccc(OCCCCn2nnc3sc4c(c3c2=O)CCCC4)cc1
2. COc1ccc2nc3oc(C(=O)N4CCC(C(N)=O)CC4)cc3cc2c1
3. COc1ccc2cc3cc(C(=O)Nc4ccc5c(c4)OCCO5)oc3nc2c1
4. COc1ccc2cc(C(=O)N3CCN(Cc4ccc5c(c4)OCO5)CC3)[nH]c2c1
5. COc1ccc(CNC(=O)c2cc3cc4ccc(C)cc4nc3o2)cc1
6. Cc1ccc2cc3cc(C(=O)NCc4ccco4)oc3nc2c1

Protein sequences, listed by entry. Tags and fused reporters are not part of them.
ATP-dependent Clp protease proteolytic subunit (Bacillus subtilis (strain 168)), P80244, UniProt P80244, whole entry, looked up: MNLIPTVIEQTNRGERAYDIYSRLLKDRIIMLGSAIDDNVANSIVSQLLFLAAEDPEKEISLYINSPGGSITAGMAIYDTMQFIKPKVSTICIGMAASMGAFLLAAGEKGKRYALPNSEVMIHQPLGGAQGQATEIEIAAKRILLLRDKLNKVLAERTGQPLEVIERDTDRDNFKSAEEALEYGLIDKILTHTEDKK

Assay by compound,1,2,3,4,5,6
ClpP mod,0%,28µM*,-1%,-6%,-14%,14µM*
p53 reactivator,.,6%,25%,1%,.,3%
A549 viability,0%,0%,-25%,-26%,-2%,1%
Nrf2 activator,0%,0%,2%,3%,0%,2%
Nrf2 inh,-11%,27%,18µM*,21µM*,-16%,-17%
miR-21 reporter,8%,-30%,-17%,6%,-14%,-11%

7. CCN1CCN(C(=O)c2cc3ccc(OC)cc3[nH]2)CC1
8. CCN(C(=O)Cn1c(C(=O)OC)cc2sccc21)c1cccc(C)c1
9. CCn1c(CC2C(=O)N(C)c3ccccc32)nc2ccccc2c1=O (stereo not given)
10. COc1ccc(-c2ccc3ncnc(NCc4ccc(C)o4)c3c2)cc1OC
11. COc1ccc2cc3cc(C(=O)NCC4COc5ccccc5O4)oc3nc2c1 (stereo not given)
12. COc1ccc2cc3cc(C(=O)NCc4ccc5c(c4)OCO5)oc3nc2c1

Assay by compound,7,8,9,10,11,12
ClpP mod,-10%,-1%,0%,.,35µM*,14µM*
p53 reactivator,?,.,.,.,0%,0%
A549 viability,-5%,-1%,-1%,-15%,-9%,-4%
Nrf2 activator,0%,5%,4%,.,0%,0%
Nrf2 inh,?,-14%,5%,-23%,?,?
miR-21 reporter,-55%,-1%,-23%,.,1%,-3%

13. COc1ccc2cc3cc(C(=O)N4CCN(Cc5ccc6c(c5)OCO6)CC4)oc3nc2c1
14. C=CCCN(Cc1ccc(OC)cc1)S(=O)(=O)c1ccccc1Br
15. Cc1ccc(N(C)S(=O)(=O)c2ccc3c(c2)CCC(=O)N3)cc1C
16. CCc1ccc(NC(=O)c2cnn3c(C)cc(C)nc23)cc1
17. O=C(Nc1ccc(F)cc1)Nc1ccc(N2CCCC2)c(S(=O)(=O)Nc2ccccc2Cl)c1
18. COc1ccccc1NS(=O)(=O)c1cc(NC(=O)c2ccncc2)ccc1N1CCOCC1

Assay by compound,13,14,15,16,17,18
ClpP mod,32µM*,.,.,.,-6%,25µM*
p53 reactivator,1%,.,.,.,22%,-11%
A549 viability,-9%,9%,-6%,14%,?,-6%
Nrf2 activator,0%,.,.,.,3%,1%
Nrf2 inh,?,-25%,?,?,23µM*,?
miR-21 reporter,-1%,.,.,.,?,0%

19. COc1ccccc1NS(=O)(=O)c1cc(NC(=O)Nc2ccccc2)ccc1N1CCCCC1
20. O=C(Nc1ccc(N2CCCCC2)c(S(=O)(=O)Nc2ccccc2Cl)c1)c1cccnc1
21. O=C(Nc1ccc(Cl)c(Cl)c1)Nc1ccc(N2CCCC2)c(S(=O)(=O)Nc2ccccc2Cl)c1
22. Cc1cccn2c(=O)cc(COc3cccc(NC(=O)Nc4cccc(Cl)c4)c3)nc12
23. O=C(Nc1ccc(Cl)cc1)c1cc2nc(-c3ccco3)cc(C(F)(F)F)n2n1
24. Cc1nn(C)c(C)c1NC(=O)c1cc2nc(-c3ccco3)cc(C(F)(F)F)n2n1

Assay by compound,19,20,21,22,23,24
ClpP mod,25µM*,-1%,-10%,-5%,14µM*,.
p53 reactivator,11%,-4%,7%,.,5%,-5%
A549 viability,-8%,-5%,?,7%,-1%,-6%
Nrf2 activator,2%,0%,0%,1%,3%,5%
Nrf2 inh,-18%,?,13µM*,.,4%,-22%
miR-21 reporter,?,.,?,-5%,-10%,-10%

25. Clc1ccc(CSc2snnc2-c2ccccc2)c(Cl)c1
26. c1ccc(CSc2snnc2-c2ccccc2)cc1
27. Cc1ccc2oc(C(=O)Nc3ccc(S(=O)(=O)N4CCCC(C)C4)cc3)cc(=O)c2c1 (stereo not given)
28. Cc1ccc2occ(CC(=O)Nc3ccc(S(=O)(=O)N4CCCC(C)C4)cc3)c2c1 (stereo not given)
29. C=CCSC1=N/C(=C\C=C\c2ccco2)C(=O)S1
30. C=CCSC1=N/C(=C\c2sccc2C)C(=O)S1

Assay by compound,25,26,27,28,29,30
ClpP mod,0%,-2%,4%,-2%,4%,-1%
p53 reactivator,40µM*,?,.,.,4%,-6%
A549 viability,.,7%,-11%,-25%,-19%,-13%
Nrf2 activator,3%,3%,0%,0%,13µM*,4%
Nrf2 inh,29%,3%,?,21µM*,-2%,2%
miR-21 reporter,-47%,-41%,0%,17%,-5%,4%

# Complete entries from above:
# `Cc1ccc2occ(CC(=O)Nc3ccc(S(=O)(=O)N4CCCC(C)C4)cc3)c2c1` (stereo not given) as listed: ClpP mod = -2%; p53 reactivator = .; A549 viability = -25%; Nrf2 activator = 0%; Nrf2 inh = 21µM*; miR-21 reporter = 17%
# `C=CCSC1=N/C(=C\c2sccc2C)C(=O)S1` as listed: ClpP mod = -1%; p53 reactivator = -6%; A549 viability = -13%; Nrf2 activator = 4%; Nrf2 inh = 2%; miR-21 reporter = 4%

# (further entries)
31. COc1ccc(S(=O)(=O)Nc2ccccc2-c2nnn(CC(=O)Nc3ccccc3OC)n2)cc1
32. COc1ccc(C(=O)Cn2nnc(-c3ccccc3NC(=O)c3ccco3)n2)cc1
33. COc1ccc(C(=O)Nc2ccccc2-c2nnn(CC(=O)N3CCOCC3)n2)cc1
34. COc1ccc(NC(=O)Cn2nnc(-c3ccccc3NS(=O)(=O)c3ccccc3)n2)cc1
35. CC1(C)CCC(c2ccc(Cl)cc2)=C(CN2CCN(c3ccc(C(=O)NS(=O)(=O)c4ccc(N[C@H](CCN5CCOCC5)CSc5ccccc5)c(S(=O)(=O)C(F)(F)F)c4)cc3)CC2)C1
36. Cc1cccc(OCC(=O)Nc2cccc(C(=O)OCc3cc(=O)n4nc(C(C)C)sc4n3)c2)c1

Assay by compound,31,32,33,34,35,36
ClpP mod,2%,?,0%,-1%,-12%,-5%
p53 reactivator,8%,-5%,4%,-8%,.,.
A549 viability,?,?,5%,-13%,.,-16%
Nrf2 activator,0%,1%,0%,0%,.,0%
Nrf2 inh,?,18µM*,3%,21µM*,.,.
miR-21 reporter,29%,-3%,-2%,10%,.,18%

37. CC(=O)Nc1ccc(S(=O)(=O)N2CCC(c3nc4ccc(C)cc4[nH]3)CC2)cc1
38. CC(C)(C)c1ccc(S(=O)(=O)N2CCC(c3nc4ccc(Cl)cc4[nH]3)CC2)cc1
39. COc1ccc(Br)cc1C(=O)Nc1cccc(NC(=O)c2ccco2)c1
40. O=C(Nc1ccccc1O)c1ccc(C(=O)c2ccccc2)o1
41. O=C(/C=C/c1cccc([N+](=O)[O-])c1)Nc1cccc(NC(=O)c2ccco2)c1
42. COc1ccccc1NC(=O)c1ccc(C(=O)c2ccccc2)o1
43. COc1c(C)cc(Br)cc1C(=O)Nc1cccc(NC(=O)c2ccco2)c1

Assay by compound,37,38,39,40,41,42,43
ClpP mod,1%,-1%,-7%,0%,3%,0%,28µM*
p53 reactivator,2%,-4%,-11%,.,5%,-3%,-3%
A549 viability,2%,?,11%,0%,?,2%,-8%
Nrf2 activator,1%,4%,0%,13µM*,3%,7%,-1%
Nrf2 inh,-27%,16µM*,?,16%,21µM*,-10%,?
miR-21 reporter,13%,14%,15%,-43%,1%,-30%,28%
